Measured values from US20240043395A1, “COMPOUNDS AND COMPOSITIONS AS MODULATORS OF TLR SIGNALING” (Neuropore Therapies, Inc., priority 2020, published 2024).

Sequences of proteins named here, by UniProt entry; tags and fusion partners are left off. Residues count along the entry.
UniProt O60603, 21-784: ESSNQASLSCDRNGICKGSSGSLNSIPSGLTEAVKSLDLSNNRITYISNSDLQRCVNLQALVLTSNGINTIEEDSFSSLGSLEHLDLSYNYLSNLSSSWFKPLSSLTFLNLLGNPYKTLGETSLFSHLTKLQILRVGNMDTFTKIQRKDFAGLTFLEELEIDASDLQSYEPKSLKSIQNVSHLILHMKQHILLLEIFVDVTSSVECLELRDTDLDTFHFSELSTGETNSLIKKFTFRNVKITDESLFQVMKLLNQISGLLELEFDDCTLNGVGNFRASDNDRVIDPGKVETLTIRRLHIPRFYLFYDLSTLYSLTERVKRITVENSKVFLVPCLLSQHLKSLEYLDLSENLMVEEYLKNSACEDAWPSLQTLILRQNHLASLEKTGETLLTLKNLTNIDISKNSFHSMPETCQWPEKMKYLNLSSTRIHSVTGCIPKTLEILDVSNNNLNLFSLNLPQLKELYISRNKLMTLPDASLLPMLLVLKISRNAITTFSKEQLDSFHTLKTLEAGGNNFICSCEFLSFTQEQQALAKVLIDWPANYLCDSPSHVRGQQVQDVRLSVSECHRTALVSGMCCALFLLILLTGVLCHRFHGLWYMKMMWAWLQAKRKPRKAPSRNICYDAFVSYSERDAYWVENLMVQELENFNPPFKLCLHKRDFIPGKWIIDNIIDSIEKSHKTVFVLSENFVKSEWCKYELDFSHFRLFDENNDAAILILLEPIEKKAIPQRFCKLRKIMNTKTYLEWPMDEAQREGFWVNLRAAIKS

Experiments:
human TLR2 [1] = target: T1, human TLR2 (Homo sapiens (Human), UniProt O60603); experiment: HEK-Blue hTLR2 antagonism assay (SEAP reporter), agonist Pam2CSK4; assay type: cell-based
Procedure: (§1) Synthetic diacylated lipoprotein (Pam2CSK4, TLR2/6 agonist) and synthetic triacylated lipoprotein (Pam3CSK4, TLR1/2 agonist) were obtained from InvivoGen and were dissolved in endotoxin-free water to a concentration 1 mg/mL, vortexed until complete solubilization, and stored in aliquots at −20° C. Prior to addition to cells, an aliquot of the dissolved ligand was vortexed shortly and then was diluted in medium to 25 ng/mL Pam2CSK4 or 1000 ng/mL Pam3CSK4.
(§2) Test compounds were solubilized fresh to 10-20 mM stocks in DMSO and sonicated for 5-10 minutes in a water bath sonicator. Serial dilutions were prepared in DMSO, and then diluted in medium. The final concentration of DMSO used in the assay was 1%.
(§3) HEK-Blue hTLR2 reporter cells (InvivoGen) are HEK-293 cells stably expressing both the human TLR2 gene and a secreted embryonic alkaline phosphatase (SEAP) reporter construct downstream of NFκB promotor sites. HEK-Blue hTLR2 reporters were cultured according to manufacturer's protocol using Dulbecco's Modified Eagle Medium (DMEM; Gibco) containing 1× GlutaMax (Gibco), 10% heat-inactivated Fetal Bovine Serum (Gibco), Pen-Strep (50 U/mL penicillin, 50 μg/mL streptomycin, Gibco), 100 μg/mL Normocin (InvivoGen), and the selective antibiotic, lx HEK-Blue Selection (InvivoGen). Quanti-Blue reagent (InvivoGen) for detection and quantification of secreted alkaline phosphatase was dissolved in 100 mL of endotoxin-free water, warmed to 37° C. for 30 minutes and then filtered using a 0.2 μm membrane.
On day 1, 50 μL of each test compound dilution in duplicates or a vehicle control was added to each well of a 96-well plate followed by addition of 150 μL of HEK-Blue hTLR2 cell suspension (1×10^5 cells/well) and incubated at 37° C./5% CO2 for 2 h. Next, 50 μL of an approximate 3×EC50 concentration of each agonist (Pam2CSK4 or Pam3CSK4) was added to the wells containing test compounds or the vehicle control. The plates were then incubated at 37° C./5% CO2 for 18 h. For each assay run, non-treated HEK-Blue hTLR2 cells were treated with serial dilutions of agonists to determine EC50 values for the respective run.
(§4) On day 2, secreted alkaline phosphatase (SEAP) activity was detected in cell culture supernatants. In brief, 20 μL was collected from each well and transferred to a 96-well plate. Next, 200 μL of Quanti-Blue detection reagent was added to each well. Plates were incubated at room temperature for 15 min and SEAP activity was assessed by spectrophotometer OD reading at 655 nm. […] IC50 values were calculated based on 8-point dilutions for each compound.

human TLR2 [2] = target: T1, human TLR2; experiment: HEK-Blue hTLR2 antagonism assay (SEAP reporter), agonist Pam3CSK4; assay type: cell-based
Procedure: as §1, §2, §3
On day 1, 50 μL of each test compound dilution in duplicates or a vehicle control was added to each well of a 96-well plate followed by addition of 150 μL of HEK-Blue hTLR2 cell suspension (1×10^5 cells/well) and incubated at 37° C./5% CO2 for 2 h. […]
as §4, with “In brief, 20 μL was collected from each well and transferred to a 96-well plate. Next, 200 μL of Quanti-Blue detection reagent was added to each well.” left out

Compound | IC50 (human TLR2 [1]) [µM] | IC50 (human TLR2 [2]) [µM]
O=Cc1cc(C(=O)N2CCC(O)(c3ccc(N4CCCC4)nc3)CC2)cc(F)c1O [Compound 142, 3-fluoro-2-hydroxy-5-(4-hydroxy-4-(6-(pyrrolidin-1-yl)pyridin-3-yl)piperidine-1-carbonyl)benzaldehyde] | 34.2 | 34.8
O=Cc1cc(C(=O)N2CCS[C@@H](c3ccc(N4CCCC4)cc3)C2)cc(F)c1O [Compound 153, (S)-3-fluoro-2-hydroxy-5-(2-(4-(pyrrolidin-1-yl)phenyl)thiomorpholine-4-carbonyl)benzaldehyde] | 4.8 | –
O=Cc1cc(C(=O)N2CCCN(c3ccc(N4CCCC4)nc3)CC2)cc(F)c1O [Compound 141, 3-fluoro-2-hydroxy-5-(4-(6-(pyrrolidin-1-yl)pyridin-3-yl)-1,4-diazepane-1-carbonyl)benzaldehyde] | 50.4 | 40.1
O=Cc1cc(C(=O)N2CCC(c3ccnc(N4CCCC4)c3)CC2)cc(F)c1O [Compound 36, 3-fluoro-2-hydroxy-5-(4-(2-(pyrrolidin-1-yl)pyridin-4-yl)piperidine-1-carbonyl)benzaldehyde] | 17.4 | 15.1
